Laboratory results: US20250161471A1, “ANTI-HER2 ANTIBODY-DRUG CONJUGATES AND USES THEREOF” (priority 2021, published 2025)

Assays:
[1] = Cumulative clinical safety data, ARX788-1711 (ACE-Pan-tumor-01) and ARX788-111 (ACE-Breast-01)
[2] = test system: HER2-positive advanced gastric cancer or gastroesophageal junction adenocarcinoma (GC/GEJ); test: ACE-Gastric-01 Phase 1 clinical trial; assay type: in vivo, human
[3] = test system: Advanced Solid Tumors with HER2-expression or mutation; test: ACE-Pan tumor-01 (ARX788-1711) Phase 1 study; assay type: in vivo, human
[4] = test system: advanced breast cancers with HER2 expression; test: ACE-Breast-01 (ARX788-111) Phase 1 multiple dose-escalation study; assay type: in vivo, human; details: 1.5 mg/kg, N = 29
[5] = ADC incubated in plasma samples, detection of free AS269; assay type: in vitro ADME
Excerpt: The resulting ADC has a homogeneous drug to antibody ratio (DAR) of 1.9 to 2.0 (theoretical maximal DAR of 2.0). The mechanism of action of the ADC is achieved through multiple sequential steps. The ADC specifically binds to HER2 on the surface of cancer cells, is rapidly internalized, transports to the lysosome, and is metabolized inside the lysosome to release pAF-AS269, which binds to microtubules and induces cell cycle arrest and cell death. […] Consequently, release of free AS269 is not expected in the circulation after its IV administration. The ADC specifically binds to HER2 on the surface of cancer cells, followed by rapid internalization into the cancer cells, then transports to lysosomes and is metabolized by target cells to release a potent tubulin inhibitor, pAF-AS269 that can inhibit proliferation of cancer cells.

[6] = 1.5 mg/kg (N = 13 response evaluable)

Substance: ARX788
- dose at which pneumonitis (delayed SAE) occurs ([1]; after 4-5 cycles of administration): ≥ 1.3 mg/kg
- tolerability ([1]; cumulative data from dosed populations): generally well tolerated
- DCR [2, 6]: 46%
- OOR [2, 6]: 46%
- Confirmed ORR ([2]; 1.5 mg/kg Q3W (N = 13 response evaluable)): 46%
- patients with confirmed objective response ([2]; 1.5 mg/kg Q3W, of 13 patients): 6 patients
- Drug-related Deaths ([2]; 1.5 mg/kg, N = 14): 0 Number of patients (%)
- Pneumonitis/ILD, Grade 3 or 4 ([2]; 1.5 mg/kg, N = 14, Table 8): 0 Number of patients (%)
- Pneumonitis/ILD, Grade 3 or 4 ([2]; 1.5 mg/kg, N = 14, Table 9): 0 Number of patients (%)
- Confirmed ORR ([3]; 1.1 mg/kg Q4W (N = 3)): 33%
- ORR ([3]; 1.1 mg/kg Q4W (N = 3)): 33%
- Drug-related Deaths ([3]; 1.5 mg/kg, N = 8): 0 Number of patients (%)
- response in the first tumor assessment scan ([3]; 85-year-old HR+/HER2-low (IHC1+) metastatic breast cancer patient): partial response
- liver metastasis decrease in size ([3]; 85-year-old HR+/HER2-low (IHC1+) metastatic breast cancer patient, after 2 cycles): 30%
- liver metastasis further decrease in size (PR) ([3]; same patient, after 4 cycles): 59%
- Drug-related Deaths [4]: 0 Number of patients (%)
- Pneumonitis/ILD, All Grades ([4]; Table 8): 11 Number of patients (%)
- Pneumonitis/ILD, All Grades ([4]; Table 9): 14 (48.3%) Number of patients (%)
- free AS269 after incubation in plasma [5]: no free AS269 was detected
